{
  "source": "PubChem BioAssay AID449763",
  "about": "(Sanford-Burnham Center for Chemical Genomics, 2010)",
  "note": "Only a part is listed here, and it is no random draw. Calls of active or inactive are those of the source.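 How the source made its calls: active means at 10 µM dose, activation of 40% or more, normalized to positive control; inactive means the rest.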",
  "data": [
    {"assay": "activators of apoptotic CHOP UPR arm, primary screen, cell-based, CHO-CHOP luciferase reporter, luminescence, uHTS (AID 449763);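 further: 100% = tunicamycin at 10 µg/mL and 0% = DMSO alone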", "details": "at 10 µM, hits give high values, percent of tunicamycin response over DMSO baseline", "outline": "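Assay system: CHO-CHOP cells, stable luciferase reporter of PERK-eIF2a-CHOP signalling / Buffer or medium: F12 plus 10% serum / Compound dosing: one dose, 10 µM in 0.5% DMSO / Times: 6 h compound treatment, 37 °C / Technique: luciferase luminescence / Read-out: % reporter activation, DMSO baseline versus tunicamycin full activation / Benchmarks: tunicamycin and DMSO controls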", "values": [
      {"smiles": "O=P1(Nc2ccc(Br)cn2)COc2ccccc2OC1", "activation": "inactive: -1.22%"},
      {"smiles": "NS(=O)(=O)c1cccc(NC(=O)COC(=O)C(O)(c2ccccc2)c2ccccc2)c1", "activation": "inactive: 2.39%"},
      {"smiles": "O=[As](O)(c1cccs1)c1cccs1", "activation": "inactive: 0.0534%"},
      {"smiles": "Cc1ccc(OCC(=O)OC2CN3CCC2CC3)cc1", "note": "(centres undefined)", "activation": "inactive: 4.59%"},
      {"smiles": "Nc1cccc([As](=O)(O)c2ccccc2)c1", "activation": "inactive: -1.5%"},
      {"smiles": "O=P1(Nc2ncccn2)COc2ccccc2OC1", "activation": "inactive: -0.877%"},
      {"smiles": "O=C(/C=C/c1ccccc1)OC1CN2CCC1CC2", "note": "(centres undefined)", "activation": "inactive: -3.17%"},
      {"smiles": "CN(C)C1(CNC(=O)c2ccc(S(C)(=O)=O)cc2)CCCCC1", "activation": "inactive: -1.47%"},
      {"smiles": "Cc1nn(-c2ccccc2)c2c1P(=O)(N1CCOCC1)N(C)C(c1ccccc1)=N2", "note": "(centres undefined)", "activation": "inactive: 1.05%"},
      {"smiles": "CC1CCC(C(C)C)C(OP(=O)(Nc2ccccn2)c2ccccc2)C1", "note": "(centres undefined)", "activation": "inactive: 0.95%"},
      {"smiles": "Cc1ccc(C(=O)OC2CN3CCC2CC3)cc1", "note": "(centres undefined)", "activation": "inactive: 0.341%"},
      {"smiles": "O=[As](O)(c1ccccc1Br)c1ccccc1Br", "activation": "inactive: -0.443%"},
      {"smiles": "CC1(CBr)Cn2c(nc3ccccc3c2=O)S1", "note": "(centres undefined)", "activation": "inactive: 0.515%"},
      {"smiles": "CC(C)/C=N\\N=C(\\N)N[N+](=O)[O-]", "activation": "inactive: 1.1%"},
      {"smiles": "CN(C(=O)Cc1ccc(Cl)c(Cl)c1)[C@@H]1CCCC[C@H]1N1CCCC1", "activation": "inactive: -0.704%"},
      {"smiles": "COc1ccccc1CNC(=O)COC(=O)C(O)(c1ccccc1)c1ccccc1", "activation": "inactive: -0.851%"},
      {"smiles": "Clc1n[nH]nc1-c1nn[nH][15n]1", "activation": "inactive: -0.754%"},
      {"smiles": "CC(C)(C)C(=O)NC(Sc1ncccn1)C(Cl)(Cl)Cl", "note": "(centres undefined)", "activation": "inactive: -0.45%"},
      {"smiles": "CN(CCCl)Cc1cc(Cl)c(NC2=NCCN2)c(Cl)c1", "activation": "inactive: 0.389%"},
      {"smiles": "CCOP(=O)(Nc1ccc(C)cn1)OCC", "activation": "inactive: -0.905%"},
      {"smiles": "O=P1(Nc2ccccn2)COc2ccccc2OC1", "activation": "inactive: -0.874%"},
      {"smiles": "CCC1=CC2Cc3nc4ccc(Cl)cc4c(N)c3C(C1)C2", "note": "(centres undefined)", "activation": "inactive: -1.14%"},
      {"smiles": "CCOP(=O)(NC(=NC(C)c1ccccc1)NC(C)c1ccccc1)OCC", "note": "(centres undefined)", "activation": "inactive: 0.814%"},
      {"smiles": "COc1cc(C2NCCC3(OCCO3)C2(C)C)cc(OC)c1OC", "note": "(centres undefined)", "activation": "inactive: 1.76%"},
      {"smiles": "CCOP(=O)(Nc1cccc2ccccc12)OCC", "activation": "inactive: 0.818%"},
      {"smiles": "CCCOP(=S)(Nc1nc(N)cc(=O)[nH]1)OCCC", "activation": "inactive: 2.27%"},
      {"smiles": "Cc1ccc(NCCc2c([N+](=O)[O-])cc([N+](=O)[O-])cc2[N+](=O)[O-])cc1", "activation": "inactive: 3.46%"},
      {"smiles": "O=[As](O)(c1cccc(O)c1)c1cccc(O)c1", "activation": "inactive: -0.721%"},
      {"smiles": "Cc1cccc(OCC(=O)OC2CN3CCC2CC3)c1", "note": "(centres undefined)", "activation": "inactive: 3.66%"}
    ]}
  ]
}
